According to patent US20210220420A1, “BOTANICAL COMPOSITIONS OF SALVIA O[…] ACTIVITY IN EXTENDING CHR[…] AND METHODS OF USE” (priority 2016, published 2021):

System: C. elegans strain with a pharyngeal GFP tag and a bus-5 mutation
Experiment: C. elegans chronological lifespan assay versus small molecule AChE inhibitors (Example 4)
Assay type: in vivo
Details: 10 mg/ml
Method: The samples were prepared as a DMSO-based 10 mg/ml stock, aliquoted when necessary and a serial dilution of the stock solution was performed for N92-4. The stock solutions were stored at −20° C.
The assay was carried out using the standard C. elegans strain with a pharyngeal GFP tag and a bus-5 mutation. The GFP tag enables images of the worms to be captured using fluorescence microscopy. […] The worms were raised in the presence of a treatment or control on 12 well NGM agar plates, and were maintained at 20° C. with sufficient food (Escherichia coli strain OP-50).
A proprietary data analysis software package was used to analyse the effects of different active ingredients on aspects of worm ageing. The package was developed using a MATLAB image analysis algorithm which was adapted to recognise and count worms based on their fluorescence intensity above background fluorescence. A living worm is distinguished from a dead worm based on the degree of movement between two consecutive images, which enables the number of living and cumulative number of dead worms to be tracked throughout the experiment. […] A selection of images was manually checked to ensure the software had correctly identified the number of worms.
The statistical analysis output of OASIS provides Log-Rank and Fishers Exact Test results. The Log-Rank result is a non-parametric test which compares two survival functions for the overall lifespan assay, providing a reliable p-value summarising the whole experiment. The Fishers Exact Test calculates the significance of survival function comparisons at multiple specific time points throughout the experiment, rather than for the overall lifespan

SMILES: COc1cc2c(cc1OC)C(=O)C(CC1CCN(Cc3ccccc3)CC1)C2 (stereo not shown) [N350, Donepezil]
- Restricted mean lifespan: 14.48 days
- maximum improvement in lifespan: +19.6%
- maximum improvement in survival (at day 13 (N350), day 12 (N355, N314), day 9 (N354)): up to +15.8%
- improvement in mean life span (vs control): +11.3%
